The assay concerns the target T1, Tyrosine-protein kinase JAK3 (Homo sapiens, UniProt P52333).
T1 sequence (P52333 whole entry): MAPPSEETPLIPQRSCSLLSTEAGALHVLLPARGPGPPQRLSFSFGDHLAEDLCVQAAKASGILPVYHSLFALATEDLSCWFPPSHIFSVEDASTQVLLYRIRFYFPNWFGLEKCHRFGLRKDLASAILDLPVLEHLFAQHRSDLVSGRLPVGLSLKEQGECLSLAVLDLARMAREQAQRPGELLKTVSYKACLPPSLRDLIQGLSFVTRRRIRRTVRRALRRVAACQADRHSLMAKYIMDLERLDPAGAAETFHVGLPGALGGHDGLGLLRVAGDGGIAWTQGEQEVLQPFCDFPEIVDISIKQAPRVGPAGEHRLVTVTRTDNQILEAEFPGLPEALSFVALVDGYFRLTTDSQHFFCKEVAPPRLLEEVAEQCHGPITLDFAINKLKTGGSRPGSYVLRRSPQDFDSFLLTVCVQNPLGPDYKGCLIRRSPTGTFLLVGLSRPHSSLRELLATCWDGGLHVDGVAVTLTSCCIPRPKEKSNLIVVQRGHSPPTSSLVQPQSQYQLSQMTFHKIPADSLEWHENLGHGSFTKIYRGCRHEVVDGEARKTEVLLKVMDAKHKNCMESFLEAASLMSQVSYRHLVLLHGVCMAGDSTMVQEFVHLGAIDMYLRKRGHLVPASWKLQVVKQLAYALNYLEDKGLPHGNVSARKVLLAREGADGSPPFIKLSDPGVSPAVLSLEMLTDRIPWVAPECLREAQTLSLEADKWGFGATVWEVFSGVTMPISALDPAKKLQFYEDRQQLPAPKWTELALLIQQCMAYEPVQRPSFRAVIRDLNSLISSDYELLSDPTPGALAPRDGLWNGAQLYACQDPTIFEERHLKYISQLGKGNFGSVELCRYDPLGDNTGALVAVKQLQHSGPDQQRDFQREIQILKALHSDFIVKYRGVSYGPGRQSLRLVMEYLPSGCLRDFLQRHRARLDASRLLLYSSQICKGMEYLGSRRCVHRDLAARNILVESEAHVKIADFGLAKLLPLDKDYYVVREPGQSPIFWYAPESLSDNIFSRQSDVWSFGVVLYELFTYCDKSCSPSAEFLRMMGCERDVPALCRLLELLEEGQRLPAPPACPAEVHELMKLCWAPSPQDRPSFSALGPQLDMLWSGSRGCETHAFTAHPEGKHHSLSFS
Nature of the assay: Biochemical JAK Kinase Assays: A panel of four LanthaScreen JAK biochemical assays (JAK1, 2, 3 and Tyk2) were carried in a common kinase reaction buffer (50 mM HEPES, pH 7.5, 0.01% Brij-35, 10 mM MgCl2, and 1 mM EGTA). Recombinant GST-tagged JAK enzymes and a GFP-tagged STAT1 peptide substrate were obtained from Life Technologies.Serially diluted compounds were pre-incubated with each of the four JAK enzymes and the substrate in white 384-well microplates (Corning) at ambient temperature for 1 h. ATP was subsequently added to initiate the kinase reactions in 10 μL total volume, with 1% DMSO. […] Kinase reactions were allowed to proceed for 1 hour at ambient temperature before a 10 μL preparation of EDTA (10 mM final concentration) and Tb-anti-pSTAT1 (pTyr701) antibody (Life Technologies, 2 nM final concentration) in TR-FRET dilution buffer (Life Technologies) was added. The plates were allowed to incubate at ambient temperature for 1 h before being read on the EnVision reader (Perkin Elmer).

SMILES strings stand for the structures. Values joined by “and” are separate entries in the source; they are usually repeats but may differ in a detail not shown here. Equal entries are not always repeated.

One molecule from ChEMBL document CHEMBL5726314, “JAK inhibitors containing a 4-membered heterocyclic amide” (2019) can be followed below.

Take `CCCN1Cc2[nH]c(-c3n[nH]c4cc(-c5cc(F)c(O)cc5CC)ccc34)nc2C[C@@H]1C(=O)N1CC(C)(N(C)C)C1`: the Ki was 0.25 nM (2×) and 0.4 nM.
